Tested on: healthy donor platelets
Assay: Procoagulant platelet flow cytometry assay, healthy donor whole blood with APS patient plasma
Assay type: cell-based, human
Conditions: eculizumab 50 μg/mL pre-treatment 15 min
Procedure: The GSAO-based whole blood PP flow cytometry assay established by the inventors^4 was modified to incorporate patient plasma. Citrated whole blood (13 μL) was incubated with and without agonists, unfractionated heparin (Pfizer) and plasma (5 μL) for 10 minutes with final concentrations of 2.5 mM Gly-Pro-Arg-Pro peptide (Sigma-Aldrich) and 2.5 mM calcium chloride. […] In some experiments, blood was pre-treated with 10 μg/mL IV.3 (StemCell Technologies), a monoclonal antibody against FcγRIIa, for 15 minutes prior to the reaction. Samples were incubated with antibodies to CD45, CD41a, CD62P—or isotype control, and GSAO or GSCA, and fixed before analysis on a BD LSRFortessa X-20.
Citrated whole blood (13 μL) was incubated with platelet agonists and plasma (5 μL) from healthy donors or patients, for 10 minutes with final concentrations of 2.5 mM Gly-Pro-Arg-Pro peptide (Sigma-Aldrich) and 2.5 mM calcium chloride in a 50 μL reaction. […] In some experiments, blood was pre-treated with 50 μg/mL eculizumab (monoclonal antibody against complement protein C5 (Soliris)) for 15 minutes prior to the reaction. […]

B1: eculizumab: monoclonal antibody against complement protein C5 (antibody, chains of the INN, looked up)
heavy: QVQLVQSGAEVKKPGASVKVSCKASGYIFSNYWIQWVRQAPGQGLEWMGEILPGSGSTEYTENFKDRVTMTRDTSTSTVYMELSSLRSEDTAVYYCARYFFGSSPNWYFDVWGQGTLVTVSSASTKGPSVFPLAPCSRSTSESTAALGCLVKDYFPEPVTVSWNSGALTSGVHTFPAVLQSSGLYSLSSVVTVPSSNFGTQTYTCNVDHKPSNTKVDKTVERKCCVECPPCPAPPVAGPSVFLFPPKPKDTLMISRTPEVTCVVVDVSQEDPEVQFNWYVDGVEVHNAKTKPREEQFNSTYRVVSVLTVLHQDWLNGKEYKCKVSNKGLPSSIEKTISKAKGQPREPQVYTLPPSQEEMTKNQVSLTCLVKGFYPSDIAVEWESNGQPENNYKTTPPVLDSDGSFFLYSRLTVDKSRWQEGNVFSCSVMHEALHNHYTQKSLSLSLG
light: DIQMTQSPSSLSASVGDRVTITCGASENIYGALNWYQQKPGKAPKLLIYGATNLADGVPSRFSGSGSGTDFTLTISSLQPEDFATYYCQNVLNTPLTFGQGTKVEIKRTVAAPSVFIFPPSDEQLKSGTASVVCLLNNFYPREAKVQWKVDNALQSGNSQESVTEQDSKDSTYSLSSTLTLSKADYEKHKVYACEVTHQGLSSPVTKSFNRGEC
inhibition of hypersensitivity to thrombin induced by APS patient plasma (plasma collected from plasma exchange (PLEX) (FIG. 15)): not fully inhibited
inhibition of hypersensitivity to thrombin induced by APS patient plasma (plasma collected post plasma exchange (Post-PLEX) (FIG. 16)): not fully inhibited

Reference: patent publication US20250264483A1, “IDENTIFICATION OF PROTHROMBOTIC CONDITIONS” (Sydney Local Health District, priority 2020, published 2025)
